Data reported in patent US12285437B2 (The Research Foundation for The State University of new York, priority 2019, dated 2025).
Where two headings read alike, the source gives them in different places.

Tests used:
[1] = system: HK2 human kidney cortex/proximal tubule cells; conditions: for Cell Viability Avg: FIG. 7H
[2] = system: NIH:OVCAR3 human ovarian cancer cells
[3] = 25° C.

## Doxorubicin Disubstituted Maleamic Acid Glutathione Conjugate [Dox-DMA-GSH 8]
[1]; HK2, pHe 7.4, 3 nM
  Cell Viability Avg: 103%
[1]; HK2, pHe 7.4, 10 nM
  Cell Viability Avg: 105%
[1]; HK2, pHe 7.4, 30 nM
  Cell Viability Avg: 98%
[1]; HK2, pHe 7.4, 100 nM
  Cell Viability Avg: 107%
[1]; HK2, pHe 7.4, 300 nM
  Cell Viability Avg: 96%
[1]; HK2, pHe 7.4, 1000 nM
  Cell Viability Avg: 106%
[1]; HK2, pHe 7.4, 3000 nM
  Cell Viability Avg: 93%
[1]; HK2, pHe 7.4, 10000 nM
  Cell Viability Avg: 78%
[1]; HK2, pHe 7.4, 30000 nM
  Cell Viability Avg: 71%
[1]; HK2, pHe 7.4 (FIG. 7H)
  less toxic than free Dox, fold in concentration: 30 fold
[2]; FIG. 7C, OVCAR3, 2 hr, 4 μM, pH 6.3-6.4
  Cell Viability Avg: 64%
[2]; FIG. 7C, OVCAR3, 2 hr, 4 μM, pH 7.4-7.6
  Cell Viability Avg: 57%
[2]; FIG. 7C, OVCAR3, 2 hr, 6 μM, pH 6.3-6.4
  Cell Viability Avg: 18%
[2]; FIG. 7C, OVCAR3, 2 hr, 6 μM, pH 7.4-7.6
  Cell Viability Avg: 38%
[2]; FIG. 7G, OVCAR3, 2 hr, 6 μM, pH 6.2-6.4
  Cell Viability Avg: 15%
[2]; FIG. 7G, OVCAR3, 2 hr, 6 μM, pH 6.4-6.5
  Cell Viability Avg: 16%
[2]; FIG. 7G, OVCAR3, 2 hr, 6 μM, pH 6.6-6.7
  Cell Viability Avg: 34%
[2]; FIG. 7G, OVCAR3, 2 hr, 6 μM, pH 6.8-6.9
  Cell Viability Avg: 46%
[2]; FIG. 7G, OVCAR3, 2 hr, 6 μM, pH 7.1-7.3
  Cell Viability Avg: 55%
[2]; FIG. 7G, OVCAR3, 2 hr, 6 μM, pH 7.2-7.5
  Cell Viability Avg: 52%
[2]; FIG. 10A, OVCAR3, 6 hr, 2 μM, pH 6.5-6.7
  Cell Viability Avg: 76%
[2]; FIG. 10A, OVCAR3, 6 hr, 2 μM, pH 7.3-7.6
  Cell Viability Avg: 79%
[2]; FIG. 10A, OVCAR3, 6 hr, 4 μM, pH 6.5-6.7
  Cell Viability Avg: 32%
[2]; FIG. 10A, OVCAR3, 6 hr, 4 μM, pH 7.3-7.6
  Cell Viability Avg: 49%
[2]; OVCAR3, 2-3 h, 6-8 μM prodrug, pHe 7.5-7.6
  less cytotoxic than the free drug (3 μM): 2-4 ×
[3]; pH 6.0, 0.1 hr
  Mol. % of DMA 8: 67 Mol. %
  Mol. % of DMI 7 formed: 12 Mol. %
  Mol. % of Decomposition Products: 5 Mol. %
  Mol. % of Dox Released: 16 Mol. %
[3]; pH 6.0, 2 hr
  Mol. % of DMA 8: 28 Mol. %
  Mol. % of DMI 7 formed: 10 Mol. %
  Mol. % of Decomposition Products: 5 Mol. %
  Mol. % of Dox Released: 57 Mol. %
[3]; pH 6.0, 5 hr
  Mol. % of DMA 8: 12 Mol. %
  Mol. % of DMI 7 formed: 10 Mol. %
  Mol. % of Decomposition Products: 10 Mol. %
  Mol. % of Dox Released: 68 Mol. %
[3]; pH 6.0, 24 hr
  Mol. % of DMA 8: 0 Mol. %
  Mol. % of DMI 7 formed: 10 Mol. %
  Mol. % of Decomposition Products: 10 Mol. %
  Mol. % of Dox Released: 80 Mol. %
[3]; pH 6.3, 0.1 hr
  Mol. % of DMA 8: 74 Mol. %
  Mol. % of DMI 7 formed: 9 Mol. %
  Mol. % of Decomposition Products: 8 Mol. %
  Mol. % of Dox Released: 9 Mol. %
[3]; pH 6.3, 3.5 hr
  Mol. % of DMA 8: 36 Mol. %
  Mol. % of DMI 7 formed: 9 Mol. %
  Mol. % of Decomposition Products: 8 Mol. %
  Mol. % of Dox Released: 47 Mol. %
[3]; pH 6.3, 6 hr
  Mol. % of DMA 8: 23 Mol. %
  Mol. % of DMI 7 formed: 8 Mol. %
  Mol. % of Decomposition Products: 10 Mol. %
  Mol. % of Dox Released: 59 Mol. %
[3]; pH 6.3, 24 hr
  Mol. % of DMA 8: 4 Mol. %
  Mol. % of DMI 7 formed: 16 Mol. %
  Mol. % of Decomposition Products: 12 Mol. %
  Mol. % of Dox Released: 68 Mol. %
[3]; pH 6.5, 1 hr
  Mol. % of DMA 8: 69 Mol. %
  Mol. % of DMI 7 formed: 7 Mol. %
  Mol. % of Decomposition Products: 14 Mol. %
  Mol. % of Dox Released: 10 Mol. %
[3]; pH 6.5, 6 hr
  Mol. % of DMA 8: 32 Mol. %
  Mol. % of DMI 7 formed: 11 Mol. %
  Mol. % of Decomposition Products: 14 Mol. %
  Mol. % of Dox Released: 43 Mol. %
[3]; pH 6.5, 9 hr
  Mol. % of DMA 8: 24 Mol. %
  Mol. % of DMI 7 formed: 11 Mol. %
  Mol. % of Decomposition Products: 15 Mol. %
  Mol. % of Dox Released: 50 Mol. %
[3]; pH 6.5, 24 hr
  Mol. % of DMA 8: 5 Mol. %
  Mol. % of DMI 7 formed: 13 Mol. %
  Mol. % of Decomposition Products: 15 Mol. %
  Mol. % of Dox Released: 67 Mol. %
[3]; pH 6.8, 0.2 hr
  Mol. % of DMA 8: 79 Mol. %
  Mol. % of DMI 7 formed: 8 Mol. %
  Mol. % of Decomposition Products: 9 Mol. %
  Mol. % of Dox Released: 4 Mol. %
[3]; pH 6.8, 15 hr
  Mol. % of DMA 8: 31 Mol. %
  Mol. % of DMI 7 formed: 18 Mol. %
  Mol. % of Decomposition Products: 9 Mol. %
  Mol. % of Dox Released: 42 Mol. %
[3]; pH 6.8, 20 hr
  Mol. % of DMA 8: 26 Mol. %
  Mol. % of DMI 7 formed: 21 Mol. %
  Mol. % of Decomposition Products: 10 Mol. %
  Mol. % of Dox Released: 43 Mol. %
[3]; pH 6.8, 22 hr
  Mol. % of DMA 8: 22 Mol. %
  Mol. % of DMI 7 formed: 21 Mol. %
  Mol. % of Decomposition Products: 10 Mol. %
  Mol. % of Dox Released: 47 Mol. %
[3]; pH 6.8, 24 hr
  Mol. % of DMA 8: 16 Mol. %
  Mol. % of DMI 7 formed: 25 Mol. %
  Mol. % of Decomposition Products: 10 Mol. %
  Mol. % of Dox Released: 49 Mol. %
[3]; pH 6.8, 48 hr
  Mol. % of DMA 8: 6 Mol. %
  Mol. % of DMI 7 formed: 22 Mol. %
  Mol. % of Decomposition Products: 18 Mol. %
  Mol. % of Dox Released: 54 Mol. %
[3]; pH 7.0, 0.5 hr
  Mol. % of DMA 8: 75 Mol. %
  Mol. % of DMI 7 formed: 7 Mol. %
  Mol. % of Decomposition Products: 10 Mol. %
  Mol. % of Dox Released: 8 Mol. %
[3]; pH 7.0, 4 hr
  Mol. % of DMA 8: 71 Mol. %
  Mol. % of DMI 7 formed: 11 Mol. %
  Mol. % of Decomposition Products: 10 Mol. %
  Mol. % of Dox Released: 8 Mol. %
[3]; pH 7.0, 21 hr
  Mol. % of DMA 8: 31 Mol. %
  Mol. % of DMI 7 formed: 24 Mol. %
  Mol. % of Decomposition Products: 11 Mol. %
  Mol. % of Dox Released: 34 Mol. %
[3]; pH 7.0, 25 hr
  Mol. % of DMA 8: 26 Mol. %
  Mol. % of DMI 7 formed: 24 Mol. %
  Mol. % of Decomposition Products: 15 Mol. %
  Mol. % of Dox Released: 35 Mol. %
[3]; pH 7.0, 30 hr
  Mol. % of DMA 8: 22 Mol. %
  Mol. % of DMI 7 formed: 25 Mol. %
  Mol. % of Decomposition Products: 15 Mol. %
  Mol. % of Dox Released: 38 Mol. %
[3]; pH 7.0, 48 hr
  Mol. % of DMA 8: 12 Mol. %
  Mol. % of DMI 7 formed: 30 Mol. %
  Mol. % of Decomposition Products: 15 Mol. %
  Mol. % of Dox Released: 43 Mol. %
[3]; pH 7.4, 0 hr
  Mol. % of DMA 8: 94 Mol. %
  Mol. % of DMI 7 formed: 0 Mol. %
  Mol. % of Decomposition Products: 6 Mol. %
  Mol. % of Dox Released: 0 Mol. %
[3]; pH 7.4, 24 hr
  Mol. % of DMA 8: 45 Mol. %
  Mol. % of DMI 7 formed: 23 Mol. %
  Mol. % of Decomposition Products: 13 Mol. %
  Mol. % of Dox Released: 19 Mol. %
[3]; pH 7.4, 44 hr
  Mol. % of DMA 8: 29 Mol. %
  Mol. % of DMI 7 formed: 29 Mol. %
  Mol. % of Decomposition Products: 14 Mol. %
  Mol. % of Dox Released: 28 Mol. %
[3]; pH 7.4, 69 hr
  Mol. % of DMA 8: 18 Mol. %
  Mol. % of DMI 7 formed: 32 Mol. %
  Mol. % of Decomposition Products: 23 Mol. %
  Mol. % of Dox Released: 27 Mol. %
[3]; pH 7.4, 94 hr
  Mol. % of DMA 8: 16 Mol. %
  Mol. % of DMI 7 formed: 30 Mol. %
  Mol. % of Decomposition Products: 23 Mol. %
  Mol. % of Dox Released: 31 Mol. %
[3]; pH 7.4, 123 hr
  Mol. % of DMA 8: 11 Mol. %
  Mol. % of DMI 7 formed: 27 Mol. %
  Mol. % of Decomposition Products: 39 Mol. %
  Mol. % of Dox Released: 23 Mol. %
[3]; pH 7.4, 144 hr
  Mol. % of DMA 8: 10 Mol. %
  Mol. % of DMI 7 formed: 27 Mol. %
  Mol. % of Decomposition Products: 40 Mol. %
  Mol. % of Dox Released: 23 Mol. %
